Laboratory results from PubChem BioAssay (EPA / NIEHS).
The list shows a part of the results, in another mix than the full data. The source made the active and inactive calls. How the source made its calls: active means hit-call score of the fitted dose curve at least 0.9, where 1 is the maximum; inactive means score below 0.9.

Assay: ATG_AP_1_CIS: Attagene CIS-FACTORIAL HepG2 Assay for human Activator Protein 1 (AP-1) (AID 2282931)
Settings: HepG2 Attagene cis-factorial AP-1 reporter mRNA; actives raise or lower the signal
Description: ATG_CIS is a cell-based, multiplexed-readout assay that uses HepG2, a human liver cell line, with measurements taken at 24 hours after chemical dosing in a 24-well plate.ATG_AP_1_CIS is one of 52 assay component(s) measured or calculated from the ATG_CIS assay. It is designed to make measurements of mRNA induction, a form of inducible reporter, as detected with fluorescence intensity signals by Reverse transcription polymerase chain reaction (RT-PCR) and Capillary electrophoresis technology.Data from the assay component ATG_AP_1_CIS was analyzed into 1 assay endpoint. This assay endpoint, ATG_AP_1_CIS, was analyzed with bidirectional fitting relative to DMSO as the negative control and baseline of activity. Using a type of inducible reporter, measures of mRNA for gain or loss-of-signal activity can be used to understand the reporter gene at the transcription factor-level as they relate to the gene FOS and JUN. Furthermore, this assay endpoint can be referred to as a primary readout, because this assay has produced multiple assay endpoints where this one serves a reporter gene function. To generalize the intended target to other relatable targets, this assay endpoint is annotated to the dna binding intended target family, where the subfamily is basic leucine zipper.
Human liver HepG2 cells are transiently transfected with multiple reporter transcription units (MRTUs) in 6-well plates using FuGene 6 reagent (Roche; 3 ml FuGene/1 mg DNA). The MRTU constructs are regulated by a cis-regulating element (promoter). […] A major difference between the CIS and TRANS system is that in CIS activities of endogenous TFs are measured, whereas the TRANS assay evaluates changes in activities of exogenous, chimeric NR-Gal4 proteins. […] At the end of 24 hour incubation, total RNA was isolated using TriZol reagent (Invitrogen). The isolated RNA is then reverse-transcribed using oligo(dT) primer and Mo-MLV reverse transcriptase (Invitrogen) with DNAse I (Ambion) treatment for 30 min. The one-tenth of the produced cDNA was amplified by PCR using Taq DNA polymerase (Invitrogen) and two reporter sequence-specific primers. The PCR products were fluorescently labeled by primer extension with 6-arboxyfluorescein (6-FAM) 5'-labeled reporter sequence-specific primer (2 min at 95 C, 20 s at 68 C and 10 min at 72 C) and these products were digested with 5U of HpaI (New England Biolabs) for 2h at 37 C. The fragments were purified using Qiaquick PCR columns (Qiagen), analyzed on an ABI 3130xL genetic analyzer (Applied Biosystems) with peak positions identified by using a set of X-rhodamine (ROX)-labeled MapMarker1000 molecular weight standards (BioVentures). The raw capillary electrophoresis data was processed using Attagraph software (Attagene).

Row | Structure (SMILES) | outcome | AC50
1 | CCCCOP(OCCCC)OCCCC | inactive | 
2 | O=[p+]1oc2ccccc2c2ccccc21 (configuration not stated) | inactive | 
3 | O=[N+]([O-])c1ccc([N+](=O)[O-])cc1 |  | active: 164 µM
4 | O=C(Cl)OCCOC(=O)Cl | inactive | 
5 | O=C(Cl)Oc1ccccc1 | inactive | 
6 | O=[As]c1ccccc1 (configuration not stated) | inactive | 
7 | N#CSc1ccc([N+](=O)[O-])cc1[N+](=O)[O-] |  | active: 16 µM
8 | CCCCC(CC)CO[P+](=O)OCC(CC)CCCC (configuration not stated) | inactive | 
9 | O=C1C2CC=CCC2C(=O)N1SC(Cl)(Cl)C(Cl)Cl (configuration not stated) | inactive | 
10 | CC(C)OP(=S)(OC(C)C)SCCNS(=O)(=O)c1ccccc1 | inactive | 
11 | CC(C)CCCCCCCOP(OCCCCCCCC(C)C)Oc1ccccc1 |  | active: 100 µM
12 | O=[P+](Oc1ccccc1)Oc1ccccc1 | inactive | 
13 | O=P(Cl)(Oc1ccccc1)Oc1ccccc1 | inactive | 
14 | ClP(Cl)c1ccccc1 | inactive | 
15 | Cc1cc([N+](=O)[O-])cc([N+](=O)[O-])c1O |  | active: 54.7 µM
16 | CN(C(=O)Cc1cccc2occc12)[C@H]1CC[C@@]2(CCCO2)C[C@@H]1N1CCCC1 | inactive | 
17 | CCCCO[P+](=O)OCCCC | inactive | 
